Holding throughout (conditions): 20 µM
The subject of experiment [1] is Salmonella enterica typhimurium. Kind of experiment: growth AUC normalised to DMSO control (fraction of control); higher = less growth inhibition, active = hit call of the paper.
Experiment [2] has as its system Shigella flexneri. The description is as above.
The subject of experiment [3] is P. vulgatus RND KO. Kind of experiment: growth AUC normalised to DMSO control (median) (fraction of control); higher = less growth inhibition, active = hit call of the paper. The essentials: (§1)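 Each strain went through two overnight passages under anaerobic conditions before growth in mGAM in 96-well plates, starting at OD578 0.01, with each compound from the approved-drug library at 20 μM and 1% DMSO. Inside an anaerobic incubator, OD578 was recorded every hour for 24 h. Growth curves were cut off at entry into stationary phase, and the area under the curve was calculated by the trapezoidal rule and normalised to vehicle wells on the same plate. Reported values are medians of three biological replicates.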

The subject of experiment [4] is P. vulgatus WT. The experiment is described as above. A digest of the protocol: as §1
Experiment [5] has as its system S. enterica typhimurium WT. The experiment is described as above. The essentials:
as §1

For some assays here: The hits were mostly taken out for another list; the other results follow. The list shows a part of the results, in another mix than the full data.
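For growth AUC normalised to DMSO control (median) in this document: active when median AUC fell below 0.1.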

With `COc1cc(Br)c(C[N+]2(CCOCCC3CCC4CC3C4(C)C)CCOCC2)cc1OC` (stereo not given) [Pinaverium bromide], the “growth AUC normalised to DMSO control” value is inactive: 1.03 in experiment [1]; inactive: 1.06 in experiment [2]; active: 0.00592 in experiment [3]; active: 0.0084 in experiment [4]; inactive: 0.996 in experiment [5].

Values taken from the supplement of paper PMC12350171.
